How the values were obtained:
EGFR = EGFR (Homo sapiens (Human), UniProt P00533); assay: EGFR kinase test (33P-ATP filter binding); conditions: EGFR IC50 / BTK IC50 (first figure of the cell)
Procedure: (§1) Experimental Example 2: EGFR, ITK and TEC Kinase Test
(§2) buffer conditions: 20 mM HEPES (pH 7.5), 10 mM MgCl2, 1 mM EGTA, 0.02% Brij35, 0.02 mg/mL BSA, 0.1 mm Na3VO4, 2 mm DTT, 1% DMSO.
(§3) 2.1. Preparing an indicator substrate in a freshly prepared reaction buffer
(§4) 2.2. Delivering the desired cofactor to the above substrate solution
(§5) 2.3. Delivering the indicated kinase to the substrate solution and gently mixing same
(§6) 2.4. Delivering the compounds in DMSO to the kinase reaction mixture using acoustic technology (Echo550)
(§7) 2.5. Initiating the reaction (final concentration of ATP: 2 μM, 5 μM and 5 μM respectively) by delivering ^33P-ATP (final specific activity: 0.01 μci/μL) to the reaction mixture
(§8) 2.6. Incubating the kinase reaction at room temperature for 120 minutes
(§9) 2.7. Recording the reaction on P81 ion exchange paper (Whatman #3698-915)
(§10) 2.8. Washing the filter widely with 0.75% phosphoric acid
(§11) 2.9. Measuring the radioactive phosphorylated substrate remaining on the filter paper.
(§12) 3. Data analysis: the kinase activity data is expressed as the percentage of the remaining kinase activity in a test sample compared to a reaction with a carrier (dimethyl sulfoxide), and IC50 values and curve fitting are obtained using Prism4 software (GraphPad).

Chains of the proteins cited; added tags and fusions are not shown.
UniProt Q08881, whole entry: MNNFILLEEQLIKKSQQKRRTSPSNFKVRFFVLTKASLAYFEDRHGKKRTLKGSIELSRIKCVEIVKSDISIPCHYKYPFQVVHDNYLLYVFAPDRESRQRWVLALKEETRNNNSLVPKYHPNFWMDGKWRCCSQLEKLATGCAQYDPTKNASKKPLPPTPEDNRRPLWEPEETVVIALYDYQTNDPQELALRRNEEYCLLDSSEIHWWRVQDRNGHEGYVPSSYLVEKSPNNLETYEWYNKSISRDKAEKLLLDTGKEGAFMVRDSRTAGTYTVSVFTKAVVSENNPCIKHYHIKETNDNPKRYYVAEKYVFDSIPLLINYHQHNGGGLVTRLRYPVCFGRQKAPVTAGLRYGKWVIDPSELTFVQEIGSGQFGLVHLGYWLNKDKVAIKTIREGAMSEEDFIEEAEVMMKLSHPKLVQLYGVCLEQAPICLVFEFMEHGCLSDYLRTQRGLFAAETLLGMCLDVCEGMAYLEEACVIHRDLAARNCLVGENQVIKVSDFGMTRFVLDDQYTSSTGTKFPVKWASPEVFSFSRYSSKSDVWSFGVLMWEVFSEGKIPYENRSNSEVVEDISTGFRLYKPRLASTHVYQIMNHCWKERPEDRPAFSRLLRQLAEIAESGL
UniProt P42680, whole entry: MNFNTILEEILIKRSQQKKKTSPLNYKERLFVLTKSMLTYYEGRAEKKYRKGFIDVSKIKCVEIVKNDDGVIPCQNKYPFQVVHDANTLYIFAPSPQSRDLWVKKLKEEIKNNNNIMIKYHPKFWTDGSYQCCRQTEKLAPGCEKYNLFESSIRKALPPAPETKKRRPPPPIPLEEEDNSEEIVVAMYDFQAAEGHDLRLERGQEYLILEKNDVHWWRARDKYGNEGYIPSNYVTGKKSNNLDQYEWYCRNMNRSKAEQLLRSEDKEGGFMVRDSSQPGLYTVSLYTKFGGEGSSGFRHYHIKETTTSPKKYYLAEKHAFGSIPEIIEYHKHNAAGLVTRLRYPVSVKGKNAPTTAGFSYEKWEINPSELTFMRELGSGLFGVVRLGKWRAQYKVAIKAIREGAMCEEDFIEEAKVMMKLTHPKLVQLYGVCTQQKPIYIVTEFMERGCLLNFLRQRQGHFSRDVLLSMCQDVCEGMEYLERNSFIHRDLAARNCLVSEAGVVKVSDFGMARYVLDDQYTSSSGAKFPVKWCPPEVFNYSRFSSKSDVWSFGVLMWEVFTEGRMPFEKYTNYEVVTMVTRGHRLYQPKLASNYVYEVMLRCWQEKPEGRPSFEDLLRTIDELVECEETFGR

ITK = ITK (Homo sapiens (Human), UniProt Q08881); assay: ITK kinase test (33P-ATP filter binding); conditions: ITK IC50 / BTK IC50 (second figure of the cell)
Procedure: as §1, §2, §3, §4, §5, §6, §7, §8, §9, §10, §11, §12

[1] = tested on: Human lymphoma TMD-8 cell subcutaneous xenograft; assay: Efficacy on human lymphoma TMD-8 cell subcutaneous xenograft models in CB-17 SCID mice; conditions: 50 mpk, once a day; TMD-8 xenograft in CB-17 SCID mice
Procedure: Experimental Example 4: Study on the Efficacy of the Compounds of the Present Disclosure on Human Lymphoma TMD-8 Cell Subcutaneous Xenograft Models in CB-17 SCID Mice
Experimental objective: the anti-tumor effects of the compounds were evaluated in this experiment by using TMD-8 cell subcutaneous xenograft models in CB-17 SCID mice.
Human lymphoma TMD-8 cells were cultured in a monolayer configuration in vitro, with culture conditions as follows: RMPJ-1640 medium supplemented with 10% fetal bovine serum, 100 U/mL penicillin and 100 μg/mL streptomycin, and 37° C., 5% CO2 incubator. Conventional digestion treatment with pancreatin-EDTA for passage was carried out twice a week. When the cell saturation was 80% to 90%, and the number reached the requirement, the cells were collected, counted and inoculated.
(2) Tumor Cell Inoculation
0.2 mL (1×10^7 cells) of TMD-8 cells (supplemented with matrigel in a volume ratio of 1:1) were subcutaneously inoculated on the right back of each mouse. The grouping and administration were started when the average tumor volume reached about 113 mm^3.
(3) Preparation of Test Samples
Compound group to be tested: a quantitative amount of the test compound was weighed in a brown dispensing bottle, and corresponding volume of a solvent was added. Then the mixture was vortexed to obtain a homogeneous suspension or clear solution.
Tumor diameter was measured twice a week with a vernier caliper. The calculation formula of tumor volume was V=0.5a×b^2, wherein a and b represent the long and short diameters of the tumor, respectively.
The anti-tumor efficacy of the compound was evaluated by TGI (%) or relative tumor proliferation rate T/C (%). Relative tumor proliferation rate T/C (%)=TRTV/CRTV×100% (TRTV: RTV of the treatment group; CRTV: RTV of the negative control group). The relative tumor volume (RTV) was calculated according to the results of the tumor measurement. The calculation formula was RTV=Vt/V0, wherein V0 was the average tumor volume measured at the beginning of the grouping and administration (i.e., D0), and Vt was the average tumor volume in a certain measurement. TRTV and CRTV were obtained from the data on the same day.
TGI (%) reflected the tumor growth inhibition rate. […]
At the end of the experiment, the tumor weight would be detected, and the percentage of T/Cweight would be calculated, wherein Tweight and Cweight represent the tumor weight of the administration group and the solvent control group, respectively.
statistical analysis was performed using SPSS software on the basis of RTV data at the end of the experiment. The comparison between three or more groups was analyzed by one-way ANOVA.

TEC = TEC (Homo sapiens (Human), UniProt P42680); assay: TEC kinase test (33P-ATP filter binding); conditions: TEC IC50 / BTK IC50 (third figure of the cell)
Procedure: as §1, §2, §3, §4, §5, §6, §7, §8, §9, §10, §11, §12

[2] = Pharmacokinetic study in male CD-1 mice, intravenous and intragastric administration; type: in vivo
Description: Experimental Example 3: Pharmacokinetic Study of the Compounds of the Present Disclosure
1. Summary of pharmacokinetic study of the compounds of the present disclosure
1.1 Male CD-1 mice are used as test animals; the LC/MS/MS method is used to determine drug concentrations in plasma of the mice at different time points after intravenous and intragastric administration of test compounds. The pharmacokinetic behaviors of the compounds in mice are studied and the pharmacokinetic characteristics thereof are evaluated.
2.1 Experimental drugs: test compounds.
2.2 Experimental animals: 4 healthy adult male CD-1 mice, which were divided into 2 groups according to the principle of similar body weight, with 2 mice in each group. The animals were purchased from Shanghai Xipuer-Bikai Experimental Animal Co., Ltd.
An appropriate amount of samples were weighed; a solvent was added, and the mixture was stirred under sonication until a clear state was achieved, and then used for intravenous administration.
An appropriate amount of samples were weighed; a solvent was added; and the mixture was stirred under sonication until an approximately clear solution appeared, and then used for intragastric administration.
4 male CD-1 mice were divided into 2 groups, and fasted overnight. One of the groups was administered intravenously, and the other group was administered intragastrically.
After the test compounds were administered intravenously to male CD-1 mice, 30 μL of blood was collected at 0.0830, 0.25, 0.5, 1, 2, 4, 8 and 24 hours, respectively, and placed in commercial tubes containing EDTA-K2. After the test compounds were administered intragastrically to the other mice, 30 μL of blood was collected at 0.25, 0.5, 1, 2, 4, 6, 8 and 24 hours, respectively, and placed in commercial tubes containing EDTA-K2. The test tubes were centrifuged at 3000 g for 15 minutes to separate the plasma and stored at −60° C. 2 hours after administration, the animals were allowed to eat.
After intravenous and intragastric administration, the content of the compounds to be tested in plasma of the mice was determined by the LC/MS/MS method. The linear range of the method was from 2.00 to 6000 nmol/L; plasma samples were analyzed after treatment of precipitating proteins with acetonitrile.

[3] = intragastric administration, 2 mg/kg
[4] = intravenous administration, 1 mg/kg

The ratio of the activities of EGFR and BTK (EGFR) | The ratio of the activities of ITK and BTK (ITK) | The ratio of the activities of TEC and BTK (TEC) | SMILES | T/C (relative tumor proliferation rate) [1] | TGI (%) [1] | Bioavailability F [2, 3] | Curve area (0-inf) AUC0-inf [2, 3] | Curve area (0-t) AUC0-last [2, 3] | Half-life T1/2 [2, 3] | Time to peak Tmax [2, 3] | Apparent volume of distribution Vdss [2, 4] | Clearance rate Cl [2, 4] | Curve area (0-inf) AUC0-inf [2, 4] | Curve area (0-t) AUC0-last [2, 4] | Half-life T1/2 [2, 4] | Cmax ([2]; read-out: Blood drug concentration Cmax, intragastric administration, 2 mg/kg)
383 fold | 2513 fold | 34-fold | C=CC(=O)N1CCCC(c2nn(-c3ccc(Oc4cccc(F)c4F)cc3)c3cncc(F)c23)C1 (single isomer, unassigned) | 3.6% | 101% | – | – | – | – | – | – | – | – | – | – | –
35 fold | 1559 fold | 4-fold | C=CC(=O)N1CCCC(c2nn(-c3ccc(Oc4ccccc4)cc3)c3c(N)nccc23)C1 (single isomer, unassigned) [Compound 7B] | – | – | – | – | – | – | – | – | – | – | – | – | –
19 fold | 57 fold | 4.6-fold | C=CC(=O)N1CCCC(c2nn(-c3ccc(Oc4ccccc4)cc3)c3c(N)nccc23)C1 (single isomer, unassigned) [Compound 7A] | – | – | – | – | – | – | – | – | – | – | – | – | –

SMILES | The ratio of the activities of EGFR and BTK (EGFR) | The ratio of the activities of ITK and BTK (ITK) | The ratio of the activities of TEC and BTK (TEC) | T/C (relative tumor proliferation rate) [1] | TGI (%) [1] | Bioavailability F [2, 3] | Curve area (0-inf) AUC0-inf [2, 3] | Curve area (0-t) AUC0-last [2, 3] | Half-life T1/2 [2, 3] | Time to peak Tmax [2, 3] | Apparent volume of distribution Vdss [2, 4] | Clearance rate Cl [2, 4] | Curve area (0-inf) AUC0-inf [2, 4] | Curve area (0-t) AUC0-last [2, 4] | Half-life T1/2 [2, 4] | Cmax ([2]; read-out: Blood drug concentration Cmax, intragastric administration, 2 mg/kg)
C=CC(=O)N1CCCC(c2nn(-c3ccc(Oc4c(F)cccc4F)cc3)c3cncc(F)c23)C1 (single isomer, unassigned) | 65 fold | 1690 fold | 7-fold | 7.7% | 102% | 23% | 1.777 µM·h | 1.259 µM·h | 4.88 h | 0.25 h | 0.954 L/kg | 13.3 mL/min/kg | 2.72 µM·h | 2.697 µM·h | 1.21 h | 400 nM

— patent US11739090B2, “Substituted pyrazlo[3,4-c]pyridines as selective BTK kinase inhibitors” (JUMBO DRUG BANK CO., LTD., priority 2019, dated 2023)
